Laboratory results taken from patent EP1220857B1, “GONADOTROPIN RELEASING HORMONE RECEPTOR ANTAGONISTS AND THEIR RELATED METHODS OF USE” (NEUROCRINE BIOSCIENCES, INC., priority 1999, dated 2001).

By UniProt entry, the sequences of proteins in these tests, tags left out.
UniProt P30968, whole entry: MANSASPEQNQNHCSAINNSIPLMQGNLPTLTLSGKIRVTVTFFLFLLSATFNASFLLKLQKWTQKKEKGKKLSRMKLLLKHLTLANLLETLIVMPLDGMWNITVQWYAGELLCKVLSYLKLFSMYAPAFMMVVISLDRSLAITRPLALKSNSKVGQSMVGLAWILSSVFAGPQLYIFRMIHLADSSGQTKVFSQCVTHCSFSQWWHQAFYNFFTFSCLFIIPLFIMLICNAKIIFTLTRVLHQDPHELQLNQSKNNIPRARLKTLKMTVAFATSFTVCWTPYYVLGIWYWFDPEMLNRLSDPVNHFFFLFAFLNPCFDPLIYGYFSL

The compounds below were run against GnRH receptor (Homo sapiens, UniProt P30968) (assay: GnRH receptor membrane binding assay). Conditions: displacement of [125I]-labeled GnRH peptide from membranes of cells transfected with GnRH receptor expression vectors; Ki by Cheng-Prusoff.
Experimental: Activity of GnRH receptor antagonists are typically calculated from the IC50 as the concentration of a compound necessary to displace 50% of the radiolabeled ligand from the GnRH receptor, and is reported as a "Ki" value calculated by the following equation: Ki =(IC50)/(1 + L / KD) [formula] where L = radioligand and KD = affinity of radioligand for receptor (Cheng and Prusoff, Biochem. Pharmacol. 22:3099, 1973). GnRH receptor antagonists of this invention have a Ki of 100 µM or less. In a preferred embodiment of this invention, the GnRH receptor antagonists have a Ki of less than 10 µM, and more preferably less than 1µM. More preferred compounds include: 1-1, 1-2-5, 12, 13-15, 19, 21, 27, 31, 32, 34, 37, 55, 58, 64, 73, 2B, 2D, 3A, 3B, 3D, 4A, 4B, 4C, 4D, 4G, 4H, 5A and 5B (see Examples below).
The GnRH analog is labeled by the chloramine-T method. To 10 µg of peptide in 20 µl of 0.5M sodium phosphate buffer, pH 7.6, is added 1 mCi of Na125I, followed by 22.5 µg chloramine-T and the mixture vortexed for 20 sec. The reaction is stopped by the addition of 60 µg sodium metabisulfite and the free iodine is removed by passing the iodinated mixture through a C-8 Sep-Pak cartridge (Millipore Corp., Milford, MA). The peptide is eluted with a small volume of 80% acetonitrile/water. The recovered labeled peptide is further purified by reverse phase HPLC on a Vydac C-18 analytical column (The Separations Group, Hesperia, CA) on a Beckman 334 gradient HPLC system using a gradient of acetonitrile in 0.1% TFA. The purified radioactive peptide is stored in 0.1 % BSA/20% acetonitrile/0.1% TFA at -800C and can be used for up to 4 weeks.
Cells stably, or transiently, transfected with GnRH receptor expression vectors are harvested, resuspended in 5% sucrose and homogenized using a polytron homogenizer (2x 15 sec). Nuclei are removed by centrifugation (3000 x g for 5 min.), and the supernatant centrifuged (20,000 x g for 30 min, 4° C) to collect the membrane fraction. The final membrane preparation is resuspended in binding buffer (10mM Hepes (pH 7.5), 150 mM NaCl, and 0.1% BSA) and stored at -70°C. Binding reactions are performed in a Millipore MultiScreen 96-well filtration plate assembly with polyethylenimine coated GF/C membranes. The reaction is initiated by adding membranes (40 ug protein in 130 ul binding buffer) to 50ul of [^125I]-labeled GnRH peptide (~100,000 cpm), and 20ul of competitor at varying concentrations. The reaction is terminated after 90 minutes by application of vacuum and washing (2X) with phosphate buffered saline. Bound radioactivity is measured using 96-well scintillation counting (Packard Topcount) or by removing the filters from the plate and direct gamma counting. Ki values are calculated from competition binding data using non-linear least squares regression using the Prism software package (GraphPad Software).
With `COC(=O)C(C)(C)c1nc2n(Cc3ccccc3F)c(C)c(-c3cccc(OC)c3)c(=O)n2c1CN(C)CCc1ccccn1` the Ki was < 1000 nM. With `COC(=O)C(C)(C)c1nc2n(Cc3ccccc3F)c(C)c(-c3cccc(OC)c3)c(=O)n2c1CNCc1ccccn1` the Ki was < 1000 nM. For `CCN(CC)CCN(C)Cc1c(C(C)(C)C)nc2n(Cc3ccccc3F)c(C)c(-c3ccc4c(c3)OCO4)c(=O)n12`, the Ki was < 1000 nM. In the case of `COC(=O)C(C)(C)c1nc2n(Cc3ccccc3F)c(C)c(-c3cccc(OC)c3F)c(=O)n2c1CN(C)CCc1ccccn1`, the Ki is reported as < 1000 nM. With `COC(=O)C(C)(C)c1nc2n(Cc3ccccc3F)c(C)c(-c3cccc(OC)c3)c(=O)n2c1CN(C)Cc1ccco1` the Ki was < 1000 nM. With `COC(=O)C(C)(C)c1nc2n(Cc3ccccc3F)c(C)c(-c3cccc(OC)c3)c(=O)n2c1CN(C)CCc1ccccc1` the Ki was < 1000 nM. In the case of `COc1cccc(-c2c(C)n(Cc3ccccc3F)c3nc(C(C)(C)C)c(CN(C)Cc4ccccn4)n3c2=O)c1`, the Ki is reported as < 1000 nM. In the case of `CC(=O)c1cccc(-c2c(C)n(Cc3ccccc3F)c3nc(C(C)(C)C)c(CN(C)Cc4ccccc4)n3c2=O)c1`, the Ki is reported as < 1000 nM. For `COc1cccc(-c2c(C)n(Cc3ccccc3F)c3nc(C4(C)CCOC4=O)c(CN(C)Cc4ccccc4)n3c2=O)c1` (centres unmarked), the Ki was < 1000 nM. In the case of `Cc1c(-c2ccccc2F)c(=O)n2c(CN(C)CCc3ccccn3)c(C(C)(C)C)nc2n1Cc1ccccc1F`, the Ki is reported as < 1000 nM. For `CCOC(=O)Cc1nc2n(Cc3ccccc3F)c(C)c(-c3cccc(OC)c3)c(=O)n2c1CN(C)CCc1ccccn1`, the Ki was < 1000 nM. In the case of `Cc1c(-c2ccccc2)c(=O)n2c(CN(C)Cc3ccco3)c(C(C)(C)C)nc2n1Cc1ccccc1F`, the Ki is reported as < 1000 nM. `CC(=O)c1cccc(-c2c(C)n(Cc3ccccc3F)c3nc(C(C)(C)C)c(CN(C)CCc4ccccn4)n3c2=O)c1` was tested, and the Ki was < 1000 nM. For `COCCN(C)Cc1c(C(C)(C)C)nc2n(Cc3ccccc3F)c(C)c(-c3ccc4c(c3)OCO4)c(=O)n12`, the Ki was < 1000 nM. `COc1cccc(-c2c(C)n(Cc3ccccc3F)c3nc(C4(C)CCOC4=O)c(CN(C)Cc4ccco4)n3c2=O)c1` (centres unmarked) was tested, and the Ki was < 1000 nM. For `CCOC(=O)Cc1nc2n(Cc3ccccc3F)c(C)c(-c3cccc(OC)c3)c(=O)n2c1CN(C)Cc1ccccc1`, the Ki was < 1000 nM. In the case of `COc1cccc(-c2c(C)n(Cc3ccccc3F)c3nc(C(C)(C)C)c(CN(C)C(C)c4ccccc4)n3c2=O)c1` (centres unmarked), the Ki is reported as < 1000 nM. With `COC(=O)C(C)(C)c1nc2n(Cc3ccccc3F)c(C)c(-c3cccc(OC)c3)c(=O)n2c1CN(C)Cc1ccccc1` the Ki was < 1000 nM. With `Cc1c(-c2ccc3c(c2)OCO3)c(=O)n2c(CN(C)Cc3ccccn3)c(C(C)(C)C)nc2n1Cc1ccccc1F` the Ki was < 1000 nM.

Same assay, conditions: displacement of [125I]-labeled GnRH peptide from membranes of cells transfected with GnRH receptor expression vectors; Ki by Cheng-Prusoff; tested form: TFA
In the case of `COc1cccc(-c2c(C)n(Cc3ccccc3F)c3nc(C(C)(C)C)c(CN(C)CCc4ccccn4)n3c2=O)c1`, the Ki is reported as < 1000 nM.
